System: Swiss mice
Test: Oral toxicity (mortality) in the mouse, Table 1
Assay type: in vivo
Conditions: 2000 mg/kg, 14 days
Description: The mortality percentages caused by the products of the present invention administered orally to Swiss mice are shown in Table 1. The animals, free of specific pathological organism were housed in an air conditioned room from 24 to 48 hours before the start of the experiments. They were divided up into lots of 5 males and 5 females. With the animals unfed for 24 hours, the substances were administered intragastrically in a base of 6% gum arabic in a volume equal to 0.1 ml for 10 g of animal weight. The mortality was recorded at 14 days.
% of mortality as a function of the dose

## 2-(2-N,N-dimethylamino-1-methylethyl)-N-pyridylidene-3 aniline [COR 01 213]
  % of mortality: 0%
